Source: PMC3199867, “Targeting surface nucleolin with multivalent HB-19 and related Nucant pseudopeptides results in distinct inhibitory mechanisms depending on the malignant tumor cell type” (BMC Cancer, 2011)
pIC50: −log10 of the molar value.

What was measured:
HL60 [1] = experiment: Cell death (trypan blue uptake); assay type: cell-based, human; details: HL60, freshly passaged, N6L 10 μM, mean of at least 2 independent experiments
Protocol: (§1) Human breast (MDA-MB-231, MDA-MB-435 [37]), prostate (LNCaP, from American Type Culture Collection, ATCC, Rockville, MD), and cervical (HeLa) epithelial cancer cells were grown in DMEM-glutamax medium (Gibco Invitrogen, Cergy-Pontoise, France) containing GlutaMAX™, 4.5 g/l glucose and supplemented with 10% heat-inactivated (56°C for 30 min) fetal bovine serum (FBS; Hyclone, Thermo Fisher Scientific, Inc). Human SW480 cells are derived from a grade 3-4 colon carcinoma, while the highly metastatic counterpart SW620 is established from the lymph node of a person. Both SW480 and SW620 cells (obtained from Francis Raul, IRCAD) are highly tumorigenic in nude mice. They were cultured in D-MEM, 10% FCS. The murine melanoma TIII cell line was obtained from Armelle Prévost-Blondel. Murine T29 lymphoma cells, obtained from Philippe Kastner (CNRS, Strasbourg), have been established from Ik^L/L tumors from mice carrying a hypomorphic mutation (Ik^L/L) in the Ikaros gene encoding a transcription factor that regulates lymphocyte differentiation, and acts also as a tumor suppressor in T lymphocytes. The T29 cells were cultured in RPMI medium containing 25 mM Hepes pH 7.6, 1 mM sodium pyruvate, and 10% FCS. Human leukemia cell lines, Jurkat (acute T cell leukemia), HuT 78 (cutaneous T lymphocyte), RAJI (Burkitt lymphoma), and HL60 (promyelocytic leukemia) were cultured in RPMI-1640 medium (Gibco) containing GlutaMAX™, and supplemented with 10% heat-inactivated FBS as described before. The wild-type Chinese hamster ovary cell line (CHO K1) was purchased from American Type Culture Collection (ATCC; Rockville, MD). The CHO LRP1-null cell line (CHO-13-5-1) was kindly provided by D. Strickland [47]. They were cultured in Ham's F12K medium. All cells were cultured with 10% (v/v) heat inactivated (56°C, 30 min) fetal bovine serum (FBS) (Roche Molecular Biochemicals, Indianapolis, IN) and 50 international units/mL penicillin-streptomycin (Invitrogen). Cell death was monitored conveniently by uptake of the trypan blue dye due to plasma membrane permeability of dying and/or dead cells.

LNCaP [2] = experiment: Cell death (trypan blue uptake); assay type: cell-based, human; details: subconfluent, N6L 10 μM, mean of at least 2 independent experiments
Protocol: as §1

MDA-MB 435 [3] = experiment: Cell death (trypan blue uptake); assay type: cell-based, human; details: MDA-MB 435, subconfluent, N6L 10 μM, mean of at least 2 independent experiments
Protocol: as §1

SW480 = experiment: Cell death (trypan blue uptake); assay type: cell-based, human; details: SW480, subconfluent, N6L 10 μM, mean of at least 2 independent experiments
Protocol: as §1

Jurkat [4] = experiment: Cell death (trypan blue uptake); assay type: cell-based, human; details: freshly passaged, N6L 10 μM, mean of at least 2 independent experiments
Protocol: as §1

MDA-MB 231 [5] = experiment: Cell death (trypan blue uptake); assay type: cell-based, human; details: MDA-MB 231, subconfluent, N6L 10 μM, mean of at least 2 independent experiments
Protocol: as §1

TIII = experiment: Cell death (trypan blue uptake); assay type: cell-based, murine; details: subconfluent, N6L 10 μM, mean of at least 2 independent experiments
Protocol: as §1

T29 = experiment: Cell death (trypan blue uptake); assay type: cell-based, murine
Protocol: as §1

MDA-MB 435 cells = experiment: Wound healing scratch assay (motility); assay type: cell-based, human; details: MDA-MB 435 confluent monolayers, 10 μM, 48 hours
Protocol: The wound healing assay of control and N6L treated MDA-MB 435 cells was performed as described previously. Briefly, confluent monolayers of cells (plated onto 60 mm^2 dishes) were scratched using 200 µl pipette tip, and cells were cultured in the absence (Control) or presence of N6L (10 µM) for 48 hours. Wound closure was monitored over time and photographed using Olympus 1-81 microscope at 40X magnification.

HuT 78 = experiment: Cell growth (viable cell number); assay type: cell-based, human; details: N6L 10 μM, viable cell number vs untreated control, mean of at least 2 independent experiments
Protocol: as §1

HL60 [6] = experiment: Cell growth (viable cell number); assay type: cell-based, human; details: N6L 10 μM, viable cell number vs untreated control, mean of at least 2 independent experiments
Protocol: as §1

LNCaP [7] = experiment: Cell growth (viable cell number); assay type: cell-based, human; details: N6L 10 μM, viable cell number vs untreated control, mean of at least 2 independent experiments
Protocol: as §1

MDA-MB 435 [8] = experiment: Cell growth (viable cell number); assay type: cell-based, human; details: N6L 10 μM, viable cell number vs untreated control, mean of at least 2 independent experiments
Protocol: as §1

RAJI = experiment: Cell growth (viable cell number); assay type: cell-based, human; details: N6L 10 μM, viable cell number vs untreated control, mean of at least 2 independent experiments
Protocol: as §1

HeLa = experiment: Cell growth (viable cell number); assay type: cell-based, human; details: N6L 10 μM, viable cell number vs untreated control, mean of at least 2 independent experiments
Protocol: as §1

Jurkat [9] = experiment: Cell growth (viable cell number); assay type: cell-based, human; details: N6L 10 μM, viable cell number vs untreated control, mean of at least 2 independent experiments
Protocol: as §1

MDA-MB 231 [10] = experiment: Cell growth (viable cell number); assay type: cell-based, human; details: N6L 10 μM, viable cell number vs untreated control, mean of at least 2 independent experiments
Protocol: as §1

CC(=O)N[C@@H](CCCCNC(=O)[C@H](CCCNC(=N)N)NC(=O)[C@@H]1CCCN1C[C@@H](N)CCCCN)C(=O)NC(C)(C)C(=O)NCC(=O)N[C@@H](CCCCNC(=O)[C@H](CCCNC(=N)N)NC(=O)[C@@H]1CCCN1C[C@@H](N)CCCCN)C(=O)NC(C)(C)C(=O)NCC(=O)N[C@@H](CCCCNC(=O)[C@H](CCCNC(=N)N)NC(=O)[C@@H]1CCCN1C[C@@H](N)CCCCN)C(=O)NC(C)(C)C(=O)NCC(=O)N[C@@H](CCCCNC(=O)[C@H](CCCNC(=N)N)NC(=O)[C@@H]1CCCN1C[C@@H](N)CCCCN)C(=O)NC(C)(C)C(=O)NCC(=O)N[C@@H](CCCCNC(=O)[C@H](CCCNC(=N)N)NC(=O)[C@@H]1CCCN1C[C@@H](N)CCCCN)C(=O)NC(C)(C)C(=O)NCC(=O)N[C@@H](CCCCNC(=O)[C@H](CCCNC(=N)N)NC(=O)[C@@H]1CCCN1C[C@@H](N)CCCCN)C(=O)NC(C)(C)C(=O)NCC(N)=O [Nucant N6L]
% Cell death After 24 hours (HL60 [1]): 48% | % Cell death After 24 hours (LNCaP [2]): < 5% | % Cell death After 24 hours (MDA-MB 435 [3]): < 5% | % Cell death After 24 hours (SW480): < 5% | % Cell death After 24 hours (Jurkat [4]): 60% | % Cell death After 24 hours (MDA-MB 231 [5]): < 5% | % Cell death After 24 hours (TIII): < 5% | % Cell death After 24 hours (T29; T29, freshly passaged, N6L 10 μM, mean of at least 2 independent experiments): 65% | pIC50 (T29; T29 cells, 0-20 μM, read-out: Cell death: IC50 24 hours post-passage): 5.00 to 5.30 | invasion of the scratched area (motility) (MDA-MB 435 cells): almost no cells are present at the middle of scratched area | % Growth inhibition After 3 days (HuT 78): 83% | % Growth inhibition After 3 days (HL60 [6]): 80% | % Growth inhibition After 3 days (LNCaP [7]): 90% | % Growth inhibition After 3 days (MDA-MB 435 [8]): 66% | % Growth inhibition After 3 days (RAJI): 95% | % Growth inhibition After 3 days (HeLa): 60% | % Growth inhibition After 3 days (Jurkat [9]): 85% | % Growth inhibition After 3 days (MDA-MB 231 [10]): 95%
